Values of other authors, collected in article PMC3443605 (Journal of medicinal chemistry, 2012).

Conditions: cited from earlier work

O=C1CCc2ccc(OCCCCN3CCN(c4cccc(Cl)c4Cl)CC3)cc2N1 [Compound 1, aripiprazole]
central nervous system (CNS) penetration: high
